{
  "source": "patent US6265438A",
  "about": "“Vitamin compatible micronutrient supplement” (Heritage Technologies, LLC, priority 1999, dated 2001)",
  "key": {"[1]": {"settings": "90% humidity, 140 hours"}},
  "note": "Where two headings read alike, the source gives them in different places.",
  "data": [
    {"substance": "basic ferrous chloride", "values": [
      {"measurement": "Water solubility", "setting": "Water solubility", "value": "about 500 mg per liter"}
    ]},
    {"substance": "tribasic zinc chloride", "values": [
      {"measurement": "Water solubility", "value": "about 23 mg of zinc per liter"},
      {"measurement": "Hygroscopicity (in words)", "setting": "[1]", "value": "zero weight gain"}
    ]}
  ]
}
